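Following 48 hours of exposure in 96-well plates, responses at five concentrations were used to interpolate endpoints linearly. TGI is the concentration that stops growth completely.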
Tests used:
Assay in all cases: inhibition of tumour cell growth, NCI panel, 48 h
786-0 renal = system: 786-0 renal
A498 renal = system: A498 renal
A549 NSCLC = system: A549 NSCLC
ACHN renal = system: ACHN renal
BT-549 breast = system: BT-549 breast
CAKI-1 renal = system: CAKI-1 renal
CCRF-CEM leukemia = system: CCRF-CEM leukemia
COLO 205 colon = system: COLO 205 colon
DU-145 prostate = system: DU-145 prostate
EKVX NSCLC = system: EKVX NSCLC
HCC-2998 colon = system: HCC-2998 colon
HCT-116 colon = system: HCT-116 colon
HCT-15 colon = system: HCT-15 colon
HL-60(TB) leukemia = system: HL-60(TB) leukemia
HOP-62 NSCLC = system: HOP-62 NSCLC
HOP-92 NSCLC = system: HOP-92 NSCLC
HS 578T breast = system: HS 578T breast
HT29 colon = system: HT29 colon
IGROV1 ovarian = system: IGROV1 ovarian
K-562 leukemia = system: K-562 leukemia
KM12 colon = system: KM12 colon
LOX IMVI melanoma = system: LOX IMVI melanoma
M14 melanoma = system: M14 melanoma
MALME-3M melanoma = system: MALME-3M melanoma
MCF7 breast = system: MCF7 breast
MDA-MB-231 breast = system: MDA-MB-231 breast
MDA-MB-435 = system: MDA-MB-435
MDA-N = system: MDA-N
MOLT-4 leukemia = system: MOLT-4 leukemia
NCI-H226 lung = system: NCI-H226 lung
NCI-H23 lung = system: NCI-H23 lung
NCI-H322M lung = system: NCI-H322M lung
NCI-H460 lung = system: NCI-H460 lung
NCI-H522 lung = system: NCI-H522 lung
NCI/ADR-RES ovarian = system: NCI/ADR-RES ovarian
OVCAR-3 ovarian = system: OVCAR-3 ovarian
OVCAR-4 ovarian = system: OVCAR-4 ovarian
OVCAR-5 ovarian = system: OVCAR-5 ovarian
OVCAR-8 ovarian = system: OVCAR-8 ovarian
PC-3 prostate = system: PC-3 prostate
RXF 393 renal = system: RXF 393 renal
SF-268 CNS = system: SF-268 CNS
SF-295 CNS = system: SF-295 CNS
SK-MEL-2 melanoma = system: SK-MEL-2 melanoma
SK-MEL-28 melanoma = system: SK-MEL-28 melanoma
SK-MEL-5 melanoma = system: SK-MEL-5 melanoma
SK-OV-3 ovarian = system: SK-OV-3 ovarian
SN12C renal = system: SN12C renal
SNB-19 CNS = system: SNB-19 CNS
SW-620 colon = system: SW-620 colon
T-47D breast = system: T-47D breast
TK-10 renal = system: TK-10 renal
U251 CNS = system: U251 CNS
UACC-257 melanoma = system: UACC-257 melanoma
UACC-62 melanoma = system: UACC-62 melanoma
UO-31 renal = system: UO-31 renal

**Q.** How did the TGI (786-0 renal) turn out when `CN(C)CCn1c(Cn2nnc3ccccc32)nc2cc(C(F)(F)F)ccc21` was run?
**A.** > 100 µM

**Q.** And the TGI (A498 renal)?
**A.** 58.4 µM

**Q.** What about the TGI (A549 NSCLC) of the same molecule?
**A.** > 100 µM

**Q.** And the TGI (ACHN renal)?
**A.** > 100 µM

**Q.** And the TGI (BT-549 breast)?
**A.** > 100 µM

**Q.** What about the TGI (CAKI-1 renal) of the same molecule?
**A.** > 100 µM

**Q.** What about the TGI (CCRF-CEM leukemia) of the same molecule?
**A.** 58.3 µM

**Q.** What about the TGI (COLO 205 colon) of the same molecule?
**A.** 43.1 µM

**Q.** What about the TGI (DU-145 prostate) of the same molecule?
**A.** > 100 µM

**Q.** What about the TGI (EKVX NSCLC) of the same molecule?
**A.** > 100 µM

**Q.** And the TGI (HCC-2998 colon)?
**A.** 32.7 µM

**Q.** What about the TGI (HCT-116 colon) of the same molecule?
**A.** > 100 µM

**Q.** What about the TGI (HCT-15 colon) of the same molecule?
**A.** > 100 µM

**Q.** And the TGI (HL-60(TB) leukemia)?
**A.** 50.1 µM

**Q.** And the TGI (HOP-62 NSCLC)?
**A.** > 100 µM

**Q.** What about the TGI (HOP-92 NSCLC) of the same molecule?
**A.** > 100 µM

**Q.** What about the TGI (HS 578T breast) of the same molecule?
**A.** > 100 µM

**Q.** And the TGI (HT29 colon)?
**A.** > 100 µM

**Q.** And the TGI (IGROV1 ovarian)?
**A.** > 100 µM

**Q.** And the TGI (K-562 leukemia)?
**A.** 92.5 µM

**Q.** And the TGI (KM12 colon)?
**A.** > 100 µM

**Q.** What about the TGI (LOX IMVI melanoma) of the same molecule?
**A.** > 100 µM

**Q.** And the TGI (M14 melanoma)?
**A.** 36.1 µM

**Q.** And the TGI (MALME-3M melanoma)?
**A.** 37.6 µM

**Q.** What about the TGI (MCF7 breast) of the same molecule?
**A.** > 100 µM

**Q.** And the TGI (MDA-MB-231 breast)?
**A.** > 100 µM

**Q.** And the TGI (MDA-MB-435)?
**A.** > 100 µM

**Q.** What about the TGI (MDA-N) of the same molecule?
**A.** > 100 µM

**Q.** What about the TGI (MOLT-4 leukemia) of the same molecule?
**A.** 65.9 µM

**Q.** What about the TGI (NCI-H226 lung) of the same molecule?
**A.** > 100 µM

**Q.** What about the TGI (NCI-H23 lung) of the same molecule?
**A.** > 100 µM

**Q.** What about the TGI (NCI-H322M lung) of the same molecule?
**A.** > 100 µM

**Q.** And the TGI (NCI-H460 lung)?
**A.** > 100 µM

**Q.** And the TGI (NCI-H522 lung)?
**A.** > 100 µM

**Q.** What about the TGI (NCI/ADR-RES ovarian) of the same molecule?
**A.** > 100 µM

**Q.** And the TGI (OVCAR-3 ovarian)?
**A.** > 100 µM

**Q.** What about the TGI (OVCAR-4 ovarian) of the same molecule?
**A.** > 100 µM

**Q.** What about the TGI (OVCAR-5 ovarian) of the same molecule?
**A.** > 100 µM

**Q.** What about the TGI (OVCAR-8 ovarian) of the same molecule?
**A.** > 100 µM

**Q.** And the TGI (PC-3 prostate)?
**A.** > 100 µM

**Q.** What about the TGI (RXF 393 renal) of the same molecule?
**A.** > 100 µM

**Q.** What about the TGI (SF-268 CNS) of the same molecule?
**A.** > 100 µM

**Q.** And the TGI (SF-295 CNS)?
**A.** > 100 µM

**Q.** What about the TGI (SK-MEL-2 melanoma) of the same molecule?
**A.** > 100 µM

**Q.** What about the TGI (SK-MEL-28 melanoma) of the same molecule?
**A.** > 100 µM

**Q.** And the TGI (SK-MEL-5 melanoma)?
**A.** > 100 µM

**Q.** What about the TGI (SK-OV-3 ovarian) of the same molecule?
**A.** > 100 µM

**Q.** What about the TGI (SN12C renal) of the same molecule?
**A.** > 100 µM

**Q.** What about the TGI (SNB-19 CNS) of the same molecule?
**A.** > 100 µM

**Q.** What about the TGI (SW-620 colon) of the same molecule?
**A.** > 100 µM

**Q.** What about the TGI (T-47D breast) of the same molecule?
**A.** > 100 µM

**Q.** And the TGI (TK-10 renal)?
**A.** > 100 µM

**Q.** And the TGI (U251 CNS)?
**A.** > 100 µM

**Q.** What about the TGI (UACC-257 melanoma) of the same molecule?
**A.** > 100 µM

**Q.** What about the TGI (UACC-62 melanoma) of the same molecule?
**A.** > 100 µM

**Q.** And the TGI (UO-31 renal)?
**A.** > 100 µM

— PubChem BioAssay (NCI)
